Usually IC50 stands for the point on the concentration scale where inhibition reaches its midpoint. A lower IC50 goes with higher potency.

Amino acid sequences for entries named in this document (tags omitted). A change or cut given only in a name is not applied to a line headed by its entry.
UniProt P29597: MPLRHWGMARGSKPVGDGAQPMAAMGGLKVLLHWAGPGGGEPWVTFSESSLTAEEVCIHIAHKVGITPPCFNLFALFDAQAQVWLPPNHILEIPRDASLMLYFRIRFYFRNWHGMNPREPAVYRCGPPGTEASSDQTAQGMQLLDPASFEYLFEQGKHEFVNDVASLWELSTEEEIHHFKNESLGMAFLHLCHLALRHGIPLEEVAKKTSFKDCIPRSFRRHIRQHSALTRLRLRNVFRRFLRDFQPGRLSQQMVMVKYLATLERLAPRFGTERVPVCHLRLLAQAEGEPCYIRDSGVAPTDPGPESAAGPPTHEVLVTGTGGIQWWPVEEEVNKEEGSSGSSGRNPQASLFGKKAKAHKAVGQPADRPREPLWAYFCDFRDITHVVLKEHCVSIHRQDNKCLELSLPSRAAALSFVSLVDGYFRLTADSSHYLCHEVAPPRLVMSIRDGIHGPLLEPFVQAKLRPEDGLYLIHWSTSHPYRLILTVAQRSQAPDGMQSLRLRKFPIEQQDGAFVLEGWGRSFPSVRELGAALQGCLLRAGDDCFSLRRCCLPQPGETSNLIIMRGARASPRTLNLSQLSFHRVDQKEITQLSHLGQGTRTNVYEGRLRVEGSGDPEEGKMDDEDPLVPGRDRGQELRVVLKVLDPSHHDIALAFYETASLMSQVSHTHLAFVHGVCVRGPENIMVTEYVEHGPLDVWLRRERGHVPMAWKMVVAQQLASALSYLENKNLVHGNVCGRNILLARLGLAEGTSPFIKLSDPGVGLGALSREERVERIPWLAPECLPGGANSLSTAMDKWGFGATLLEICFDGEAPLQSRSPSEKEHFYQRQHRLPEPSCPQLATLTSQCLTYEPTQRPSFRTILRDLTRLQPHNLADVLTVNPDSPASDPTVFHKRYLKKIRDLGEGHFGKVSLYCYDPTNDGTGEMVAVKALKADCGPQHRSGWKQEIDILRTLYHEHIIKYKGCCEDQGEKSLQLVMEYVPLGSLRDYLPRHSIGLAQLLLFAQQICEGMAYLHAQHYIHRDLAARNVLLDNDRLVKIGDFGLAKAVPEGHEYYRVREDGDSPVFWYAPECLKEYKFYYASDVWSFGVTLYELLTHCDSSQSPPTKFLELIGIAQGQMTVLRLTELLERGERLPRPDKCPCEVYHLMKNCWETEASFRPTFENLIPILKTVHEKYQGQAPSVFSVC

This note sets out measurements from patent US9475813B2 (priority 2013, dated 2016).

For this experiment, the target named is Tyk2 (Homo sapiens (Human), UniProt P29597). Kind of experiment: biochemical.

In turn, `O=C1c2cnc3[nH]ccc3c2N([C@H]2CC[C@H](CNCC(F)(F)F)CC2)CN1CC1CCCO1` (relative stereo) [Ex 26, 3-[(tetrahydrofuran-2-yl)methyl]-1-(trans-4-{[(2,2,2-trifluoroethyl)amino]methyl}cyclohexyl)-2,3-dihydro-1H-pyrrolo[3′,2′: 5,6]pyrido[4,3-d]pyrimidin-4(7H)-one] gave an IC50 of 100 nM.
On to `CSCN1CN([C@H]2CC[C@H](CNCC(F)(F)F)CC2)c2c(cnc3[nH]ccc23)C1=O` [Ex 21, 3-[(methylthio)methyl)-1-(trans-4-{[(2,2,2-trifluoroethyl)amino]methyl}cyclohexyl)-2,3-dihydro-1H-pyrrolo[3′,2′: 5,6]pyrido[4,3-d]pyrimidin-4(7H)-one], for which the half-inhibitory concentration (IC50) turned out to be 160 nM.
